Source: PubChem BioAssay AID624297 (National Center for Advancing Translational Sciences (NCATS), 2012)
This is a selection; strong and weak results do not stand in their true shares. Inconclusive results are not listed. Entries that show only a call come without a potency. The source made the active and inactive calls. Calls follow the shape of the dose curve; as a rule, active = well fitted activation curve with a large enough effect; inconclusive = small, poorly fitted or top-dose-only effect; inactive = no such curve, though single readings can be large or run the other way.

Assay: A quantitative high throughput screen for small molecules that induce DNA re-replication in SW480 colon adenocarcinoma cells. Also: nearly all actives have a fitted effect of over 55% in size.
Details: Hoechst DNA content imaging, 48 h; series mostly up to 46.1 µM
Potency is read from the fitted curve at half-maximal effect.

| SMILES | Potency |
| --- | --- |
| NC(=O)c1cc([N+](=O)[O-])cc([N+](=O)[O-])c1N | inactive |
| Cc1ccc(N/C(=N/P(=O)(N2CCOCC2)N2CCOCC2)N2CCOCC2)cc1 | inactive |
| CN(C(=O)Cc1ccc(Cl)c(Cl)c1)[C@H]1CCCC[C@H]1N1CCCC1 | inactive |
| Cc1ccc(OP(=O)(Nc2nccs2)Oc2ccc(C)cc2)cc1 | inactive |
| COc1ccccc1OP(=O)(Nc1ccc(C)cn1)Oc1ccccc1OC | active: 3.66 µM |
| Clc1ccc(Cl)c(NC2=NCC(CBr)S2)c1 (configuration not stated) | inactive |
| CN1CCCC(OC(=O)C(c2ccccc2)c2ccccc2)C1 (configuration not stated) | inactive |
| CC(C)CC(=O)NC(Sc1ccc(Cl)cc1)C(Cl)(Cl)Cl (configuration not stated) | inactive |
| Nc1cc(N)c2nonc2c1[N+](=O)[O-] | inactive |
| O=C(NC(Sc1ccncn1)C(Cl)(Cl)Cl)c1ccccc1 (configuration not stated) | inactive |
| Oc1ccccc1CNc1ccccn1 | inactive |
| CCCC1OP(N)(=O)OCC1CC (configuration not stated) | inactive |
| O=C(O)c1ccccc1[As](=O)(O)O | inactive |
| CC(=O)Nc1ccc([As](=O)(O)O)cc1 | inactive |
| O=P(Nc1nc2ccc(Cl)cc2s1)(c1ccccc1)c1ccccc1 | inactive |
| CN(C(=O)Cc1ccc(Cl)c(Cl)c1)[C@H]1CCCC[C@@H]1N1CCCC1 | inactive |
| Cc1ccc(NP(=O)(Oc2ccccc2F)Oc2ccccc2F)nc1 | inactive |
| CCOP(=O)(Nc1ccccc1)OCC | inactive |
| Cc1cc(SC(NC(=O)c2ccc(F)cc2)C(Cl)(Cl)Cl)ncn1 (configuration not stated) | inactive |
| CCN(N=Nc1nonc1N)c1nonc1N | inactive |
| Nc1cccc2ccc([As](=O)(O)O)cc12 | inactive |
| O=P1(N(CCCl)CCCl)OCCCS1 (configuration not stated) | inactive |
| O=C(Nc1cc([As](=O)(O)O)ccc1O)c1ccccc1 | inactive |
| CC(C)(C)C(=O)NC(Sc1ccncn1)C(Cl)(Cl)Cl (configuration not stated) | inactive |
| O=[N+]([O-])c1ncn(CCn2ncnc2[N+](=O)[O-])n1 | inactive |
| O=[N+]([O-])c1cccc(NC2=NCC(CBr)S2)c1 (configuration not stated) | inactive |

| SMILES | Potency |
| --- | --- |
| COC(=O)C1(C)COP(=O)(Nc2ccccc2)OC1 (configuration not stated) | inactive |
| O=C(O)CNc1ccc([As](=O)(O)O)cc1 | inactive |
| COc1ccc(C2=NCC(CBr)S2)cc1 (configuration not stated) | inactive |
| CC(=O)N1C2C3N(C(C)=O)C1C1N(C(C)=O)C(C(N1C(C)=O)N3C(C)=O)N2C(C)=O | inactive |
| O=[N+]([O-])c1cccc2n[nH]nc12 | inactive |
| Nc1ccc([As](=O)(O)c2ccc(N)cc2)cc1 | inactive |
| CCN(/C(=N/P(=O)(N1CCOCC1)N1CCOCC1)N1CCOCC1)c1ccc(OC)cc1 | inactive |
| CN(C)C(=O)OCCc1n(C)cc[n+]1C | inactive |
| CC(C)=N/N=C(\N)N[N+](=O)[O-] | inactive |
| CC1CCN(C(=O)Oc2c(Cl)cc(Cl)c3cccnc23)CC1 | inactive |
| O=P(Nc1nccs1)(c1ccccc1)c1ccccc1 | inactive |
| CC(C)C(=O)NC(Sc1ccccc1)C(Cl)(Cl)Cl (configuration not stated) | inactive |
| c1nnnn1CCn1cnnn1 | inactive |
| COc1ccc(N)c([N+](=O)[O-])c1[N+](=O)[O-] | inactive |
| CN(C)C1(CNC(=O)c2ccc(Cl)c(S(N)(=O)=O)c2)CCCCC1 | inactive |
| C[C@H]1OP(=O)(Oc2ccccc2)[C@H](O)[C@H](O)[C@H]1N=[N+]=[N-] (some centres not stated) | inactive |
| O=P(Nc1nc2ccccc2s1)(c1ccccc1)c1ccccc1 | inactive |
| CN(C(=O)Cc1ccccc1)[C@H]1CC[C@@]2(CCCO2)C[C@@H]1N1CCCC1 | inactive |
| O=[N+]([O-])c1ncn(CCn2cnc([N+](=O)[O-])n2)n1 | inactive |
| CC(=O)NC(SC(=S)N(C)C)C(Cl)(Cl)Cl (configuration not stated) | active: 0.231 µM |
| O=[N+]([O-])c1ccc(O)c(/C=N/Nc2ccc([N+](=O)[O-])cc2[N+](=O)[O-])c1 | inactive |
| O=[As](O)(c1ccccc1)c1ccc(O)cc1 | inactive |
| Nc1ccc([As](=O)(O)c2ccc([N+](=O)[O-])cc2)cc1 | inactive |
| C(Cc1nn[nH]n1)Cc1nn[nH]n1 | inactive |
| O=C(OC1CN2CCC1CC2)c1cccc(Cl)c1 (configuration not stated) | inactive |
| O=C(NC1CCS(=O)(=O)C1)NP(=S)(Oc1ccccc1)Oc1ccccc1 (configuration not stated) | inactive |

| SMILES | Potency |
| --- | --- |
| CCNC(=S)/N=C(\N)N[N+](=O)[O-] | inactive |
| Cc1ccc(NP(=O)(Oc2cccc(C)c2)Oc2cccc(C)c2)nc1 | inactive |
| c1ccc(-c2nn[nH]n2)c(-c2nn[nH]n2)c1 | inactive |
| O=P1(N(CCCl)CCCl)OCCC2CCCCN21 (configuration not stated) | inactive |
| Cc1ccc(OP(=O)(Nc2ccccn2)Oc2ccc(C)cc2)cc1 | inactive |
| CC(=O)NC(SC(=S)N(CC(C)C)CC(C)C)C(Cl)(Cl)Cl (configuration not stated) | inactive |
| COC(=O)c1cc2c(s1)N=C(c1ccccc1)N(C)P2(=O)N1CCOCC1 (configuration not stated) | inactive |
| CCC(=O)N1C2C3N(C(=O)CC)C1C1N(C(=O)CC)C(C(N1C(=O)CC)N3C(=O)CC)N2C(=O)CC | inactive |
| O=C(OC1CN2CCC1CC2)c1ccccc1 (configuration not stated) | inactive |
| CN(C)C(=O)Oc1noc2ccccc12 | inactive |
| Cc1ccccc1OP(=O)(Nc1ccccn1)Oc1ccccc1C | inactive |
| CC(NC(=O)COC(=O)C(O)(c1ccccc1)c1ccccc1)c1ccccc1 (configuration not stated) | inactive |
| CCOc1ccc(C2=NCC(CBr)S2)cc1 (configuration not stated) | inactive |
| O=P1(Nc2nc3ccc(Cl)cc3s2)COc2ccccc2O1 (configuration not stated) | inactive |
| CCc1cc(O)c([N+](=O)[O-])c(C)c1[N+](=O)[O-] | inactive |
| CC(C)(C)C(=O)NC(Sc1ccccc1)C(Cl)(Cl)Cl (configuration not stated) | inactive |
| COC(=O)C1(C)COP(=O)(NCc2ccccc2)OC1 (configuration not stated) | inactive |
| N#C/C(=C\c1ccc(N(CCBr)CCBr)cc1)C(N)=O | active: 20.6 µM |
| C[C@@H]1C=CCP(=O)(Oc2ccccc2)O1 (some centres not stated) | inactive |
| C[C@H]1OP(=O)(Oc2ccccc2)C[C@@H]2O[C@@H]21 (some centres not stated) | inactive |
| Cc1ccccc1CN(C)C(=O)COC(=O)C(O)(c1ccccc1)c1ccccc1 | inactive |
| CC(=O)Nc1ccc(Oc2c([N+](=O)[O-])cc([N+](=O)[O-])cc2[N+](=O)[O-])cc1 | inactive |
| CC(=O)Nc1ccc([As](=O)(O)O)c(O)c1 | inactive |
| CS(=O)(=O)c1ccc(Cl)c(NC(=O)COC(=O)C(O)(c2ccccc2)c2ccccc2)c1 | inactive |
| COc1cc(C(=O)NCC2(N3CCOCC3)CCCCC2)cc(Cl)c1OC(C)C | inactive |
